Measured values from ChEMBL document CHEMBL3638480, “Inhibitors” (2013).

By UniProt entry, the sequences of proteins in these tests, tags left out. Where a name states a change or a piece, a line headed by the entry shows the natural chain unless it says otherwise.
UniProt Q16769: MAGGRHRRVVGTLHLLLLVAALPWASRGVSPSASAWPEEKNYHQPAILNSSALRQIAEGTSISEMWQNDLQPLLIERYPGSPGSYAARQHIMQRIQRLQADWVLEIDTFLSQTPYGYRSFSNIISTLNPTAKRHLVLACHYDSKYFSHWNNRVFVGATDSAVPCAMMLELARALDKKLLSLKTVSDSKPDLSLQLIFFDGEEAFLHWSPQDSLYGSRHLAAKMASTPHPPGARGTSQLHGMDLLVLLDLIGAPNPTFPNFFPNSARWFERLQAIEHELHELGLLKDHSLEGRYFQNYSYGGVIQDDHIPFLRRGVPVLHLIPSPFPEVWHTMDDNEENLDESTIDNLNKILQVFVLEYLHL

Target: Glutaminyl-peptide cyclotransferase (Homo sapiens, UniProt Q16769)
Assay: Spectrophotometic Assay: Spectrophotometic Assay: This novel assay was used to determine the kinetic parameters for most of the QC substrates. QC activity was analyzed spectrophotometrically using a continuous method, that was derived by adapting a previous discontinuous assay (Bateman, R.C.J. 1989 J Neurosci Methods 30, 23-28).

Row | Compound | IC50 [µM]
1 | O=C1O[C@H](c2ccccc2)[C@H](c2ccccc2)N1c1ccc2nc[nH]c2c1 | < 10
2 | O=C1OC[C@H](c2ccc3c(c2)OCCO3)N1c1ccn2ccnc2c1 | < 10
